# Binding of CDR-mutated scFvs to a peptide of the spike HR2 region

All variants were tested on one target, the spike HR2 peptide PDVDLGDISGINAS (SARS-CoV-2).

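Library AAYL52 holds single substitutions and randomly drawn double and triple substitutions in the CDRs. The assay is AlphaSeq: two haploid yeast populations carry antibody and antigen on their surface. Pairs that bind mate more often; barcode pairs of the diploids are counted by sequencing. Each replicate has its own calibration line, from reference interactions of the BCL2 family. There are three technical replicates.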

Parent scFv Ab-95: VH joined to VL by a 15-residue (Gly4Ser)3 linker. Changes lie in the light chain CDRs alone.
VH: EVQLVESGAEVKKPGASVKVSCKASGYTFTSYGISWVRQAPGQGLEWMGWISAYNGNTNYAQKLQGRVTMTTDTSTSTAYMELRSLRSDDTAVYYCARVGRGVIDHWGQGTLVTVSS
VL: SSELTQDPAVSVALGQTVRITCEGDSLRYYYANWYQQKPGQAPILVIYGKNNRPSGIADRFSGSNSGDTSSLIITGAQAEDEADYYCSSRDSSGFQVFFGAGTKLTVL

Each variant is given by its three light chain CDRs, as the data file delimits them; those of the parent are EGDSLRYYYAN, GKNNRPS, SSRDSSGFQVF. Scale: log10 of Kd in nM, estimated from mating counts; low values are strong binders. A mean of the replicates is given; it leaves out those without a signal. An entry "no signal" has no value in the source: the pair was not observed among the diploids in any replicate. This suggests poor binding but is not conclusive. Nonspecific signal, from three strains lacking the peptide, appeared in 28% of pairings of library AAYL52, centred on 3.91 (5% of these signals below 2.90); values are not corrected for it. The control count says in how many pairings with the empty strains this scFv gave a signal.

{"CDR-L1": "EGDILRYYYAN", "CDR-L2": "GKRNRPS", "CDR-L3": "LSRDSSGFQVF", "mean, log10 nM": "no signal", "replicates with signal": "0 of 3", "signal with controls": "2 of 9"}
{"CDR-L1": "CGDSLRYYYAN", "CDR-L2": "GKNNRPS", "CDR-L3": "SSCDSSGYQVF", "mean, log10 nM": "2.18", "replicates with signal": "3 of 3", "signal with controls": "1 of 9"}
{"CDR-L1": "EGDSLRYYQAN", "CDR-L2": "GKNFRPS", "CDR-L3": "SWRDSSGFQVF", "mean, log10 nM": "2.75", "replicates with signal": "3 of 3", "signal with controls": "2 of 9"}
{"CDR-L1": "EGLSQRYYYAN", "CDR-L2": "GKNNGPS", "CDR-L3": "SSRDSSGFQVF", "mean, log10 nM": "2.89", "replicates with signal": "1 of 3", "signal with controls": "3 of 9"}
{"CDR-L1": "EGDSLRYYEDN", "CDR-L2": "GKNNRPS", "CDR-L3": "QSRDSSGFQVF", "mean, log10 nM": "no signal", "replicates with signal": "0 of 3", "signal with controls": "3 of 9"}
{"CDR-L1": "EGDSLRYYYAN", "CDR-L2": "GKNNRPS", "CDR-L3": "SPRDSSGFHMF", "mean, log10 nM": "4.22", "replicates with signal": "1 of 3", "signal with controls": "5 of 9"}
{"CDR-L1": "EGMYLRYYYAN", "CDR-L2": "GKNNRPS", "CDR-L3": "SSRDLSGFQVF", "mean, log10 nM": "4.59", "replicates with signal": "1 of 3", "signal with controls": "2 of 9"}
{"CDR-L1": "EQDELRYYYAN", "CDR-L2": "GKNNRPS", "CDR-L3": "SSRSSSGFQVF", "mean, log10 nM": "2.50", "replicates with signal": "3 of 3", "signal with controls": "3 of 9"}
{"CDR-L1": "EGDSLRYYYAN", "CDR-L2": "GPNNRPS", "CDR-L3": "SSTDSSGFQVF", "mean, log10 nM": "3.66", "replicates with signal": "2 of 3", "signal with controls": "1 of 9"}
{"CDR-L1": "LGDSLRYYYAN", "CDR-L2": "GKNNRPL", "CDR-L3": "VSRDSSGFQVF", "mean, log10 nM": "no signal", "replicates with signal": "0 of 3", "signal with controls": "1 of 9"}
{"CDR-L1": "EGDSLRYYYAN", "CDR-L2": "GKNNRRS", "CDR-L3": "SDRDSSGFQVG", "mean, log10 nM": "no signal", "replicates with signal": "0 of 3", "signal with controls": "2 of 9"}
{"CDR-L1": "EGDSLRYYYAN", "CDR-L2": "GKNNRDA", "CDR-L3": "SSRDSSGFCVF", "mean, log10 nM": "3.74", "replicates with signal": "1 of 3", "signal with controls": "0 of 9"}
{"CDR-L1": "EGSSLTYYYAN", "CDR-L2": "GKNNRPS", "CDR-L3": "SKRDSSGFQVF", "mean, log10 nM": "3.31", "replicates with signal": "1 of 3", "signal with controls": "1 of 9"}
{"CDR-L1": "EGDLLRYYMAN", "CDR-L2": "GKNNRPS", "CDR-L3": "SSFDSSGFQVF", "mean, log10 nM": "4.97", "replicates with signal": "1 of 3", "signal with controls": "2 of 9"}
{"CDR-L1": "EGDSLMYGYAN", "CDR-L2": "MKNNRPS", "CDR-L3": "SSRDSSGFQVF", "mean, log10 nM": "2.79", "replicates with signal": "3 of 3", "signal with controls": "5 of 9"}
{"CDR-L1": "EGDSQRSYYAN", "CDR-L2": "GKNNRPS", "CDR-L3": "SSRDSSGFQVN", "mean, log10 nM": "3.47", "replicates with signal": "3 of 3", "signal with controls": "2 of 9"}
{"CDR-L1": "EGDALRYYYAN", "CDR-L2": "GKNNRPS", "CDR-L3": "SSSDSSNFQVF", "mean, log10 nM": "2.03", "replicates with signal": "3 of 3", "signal with controls": "2 of 9"}
{"CDR-L1": "EDDSSRYYYAN", "CDR-L2": "GKNNRPS", "CDR-L3": "SSRDASGFQVF", "mean, log10 nM": "3.34", "replicates with signal": "3 of 3", "signal with controls": "6 of 9"}
{"CDR-L1": "ESDSLRYYYAN", "CDR-L2": "GKNDRPS", "CDR-L3": "VSRDSSGFQVF", "mean, log10 nM": "2.56", "replicates with signal": "3 of 3", "signal with controls": "3 of 9"}
{"CDR-L1": "EGDSHRYYYAN", "CDR-L2": "GKNNRPS", "CDR-L3": "SSRDSSWGQVF", "mean, log10 nM": "3.17", "replicates with signal": "3 of 3", "signal with controls": "3 of 9"}
{"CDR-L1": "PGDSLRYYIAN", "CDR-L2": "GKNNRPS", "CDR-L3": "SSRDESGFQVF", "mean, log10 nM": "4.22", "replicates with signal": "2 of 3", "signal with controls": "5 of 9"}
{"CDR-L1": "EGDSLRYMYAN", "CDR-L2": "GKNTRPS", "CDR-L3": "SLRDSSGFQVF", "mean, log10 nM": "2.36", "replicates with signal": "3 of 3", "signal with controls": "2 of 9"}
{"CDR-L1": "EGDSLRYYYAN", "CDR-L2": "GKCNRPS", "CDR-L3": "SERQSSGFQVF", "mean, log10 nM": "4.48", "replicates with signal": "2 of 3", "signal with controls": "3 of 9"}
{"CDR-L1": "EGDSLRYYYAN", "CDR-L2": "GKNNRPS", "CDR-L3": "SSRHSSFFQVT", "mean, log10 nM": "3.34", "replicates with signal": "3 of 3", "signal with controls": "3 of 9"}

For reference, 4 entries of the list once more:

| CDR-L1 | CDR-L2 | CDR-L3 | mean, log10 nM | replicates with signal | signal with controls |
|---|---|---|---|---|---|
| EGDSLRYYYAN | GKNNRRS | SDRDSSGFQVG | no signal | 0 of 3 | 2 of 9 |
| EDDSSRYYYAN | GKNNRPS | SSRDASGFQVF | 3.34 | 3 of 3 | 6 of 9 |
| EGDSLMYGYAN | MKNNRPS | SSRDSSGFQVF | 2.79 | 3 of 3 | 5 of 9 |
| ESDSLRYYYAN | GKNDRPS | VSRDSSGFQVF | 2.56 | 3 of 3 | 3 of 9 |

Data: MIT Lincoln Laboratory AlphaSeq set, Engelhart et al. 2022, doi:10.1038/s41597-022-01779-4, as distributed in FLAb.